Tested on: COL17A1
Test: COL17A1 immunostaining of skin after hydroxyurea administration
Details: 7-week-old C57BL6 mice, three times a month, tissues collected three months later (FIG. 17)

SMILES: NC(=O)NO [Hydroxyurea]
- expression of COL17A1 in the basal layer: markedly decreased
